Measurements reported in patent US5141962A, “Amine compounds” (Roussel Uclaf, priority 1989, dated 1992).

Columns and labels:
male rats = assay: Antagonist effect vis-a-vis the diuretic activity of U-50488, action on diuresis; assay type: in vivo, rat; conditions: male rats fasted 16 h; product of Example 1 20 mg/kg SC, U-50488 5 mg/kg, combination 5 + 20 mg/kg; urine collected for one hour
female mice = assay: Antagonist effect vis-a-vis the analgesic activity of U-50488, hot plate test with mice; assay type: in vivo, mouse; conditions: hot plate 56° C., product of Example 1 20 mg/kg SC, U-50488 5 mg/kg SC, combination 5 + 20

CN(C(=O)Cc1ccc(Cl)c(Cl)c1)[C@@H]1CCCC[C@H]1N1CCCC1 (relative stereo)
Volume of urine excreted in 1 hour, m ± esm (male rats): 0.0098 ± 0.0003 L/kg | Reaction time, m ± esm, 30 mn (female mice; 30 minutes after injection): 9.6 ± 1.1 s | Reaction time, m ± esm, 0 mn (female mice; initial time (0 mn)): 5.2 ± 0.1 s
